The text below walks through data of ChEMBL document CHEMBL3877309, “Determination of binding modes and binding constants for the complexes of 6H-pyrido[4,3-b]carbazole derivatives with DNA” (Bioorg Med Chem, 2017).

Experiment [1] is described as follows: Ratio of Ka for synthetic biotin-labeled 30-mer GC-rich duplex DNA in pH 7 to Ka for synthetic biotin-labeled 30-mer GC-rich duplex DNA in pH 7.8.
Experiment [2] in a line: Binding affinity to synthetic biotin-labeled 30-mer GC-rich duplex DNA in pH 7 EDTA buffer solution in presence of 0.05 M NaCl at 25 degC by QCM sensogram analysis.
Experiment [3] can be described thus: Binding affinity to synthetic biotin-labeled 30-mer GC-rich duplex DNA in pH 7.8 EDTA buffer solution in presence of 0.05 M NaCl at 25 degC by QCM sensogram analysis.

Turning to `COc1ccc2[nH]c3c(C(=O)NCCN)c4cc[n+](C)cc4c(C)c3c2c1`, the Ratio in experiment [1] was 1.4. In addition, the values for the Ka in experiment [2] and in experiment [3] were 147 ×10⁵ /M and 108 ×10⁵ /M, respectively.

As for `CNC(=O)NCCNC(=O)c1c2ccncc2c(C)c2c1[nH]c1ccccc12`, the Ratio in experiment [1] came to 0.5. In addition, the Ka is 1.05 ×10⁵ /M in experiment [2] and 2.2 ×10⁵ /M in experiment [3].

For `CNC(=O)NCCNC(=O)c1c2ccncc2c(C)c2c1[nH]c1ccc(OC)cc12`, in experiment [1], the Ratio was 0.6. The Ka in experiment [2] stood at 2.17 ×10⁵ /M; in experiment [3] it was 3.75 ×10⁵ /M.

As to `Cc1c2c[n+](C)ccc2c(C(=O)NCCCCCN)c2[nH]c3ccccc3c12`, the Ratio in experiment [1] stood at 2.6. For the same molecule, the Ka was determined as 45 ×10⁵ /M in experiment [2] and 16.7 ×10⁵ /M in experiment [3].

In the case of `CNC(=O)NCCNC(=O)c1c2cc[n+](C)cc2c(C)c2c1[nH]c1ccccc12`, the Ratio in experiment [1] came out at 1.3. The Ka in experiment [2] was 2.9 ×10⁵ /M; in experiment [3], 2.31 ×10⁵ /M.

Turning to `Cc1c2c[n+](C)ccc2c(C(=O)NCCN)c2[nH]c3ccccc3c12`, the Ratio in experiment [1] is 1.8. Also, the Ka in experiment [2] was 33.2 ×10⁵ /M; in experiment [3], 18.2 ×10⁵ /M.

With `COc1ccc2[nH]c3c(C(=O)NCCN)c4ccncc4c(C)c3c2c1`, the Ratio in experiment [1] stood at 7.8. In addition, the values for the Ka in experiment [2] and in experiment [3] were 25.1 ×10⁵ /M and 3.2 ×10⁵ /M, respectively.

Take `CNC(=O)NCCNC(=O)c1c2cc[n+](C)cc2c(C)c2c1[nH]c1ccc(OC)cc12`: the Ratio in experiment [1] is 1.6. The Ka amounted to 3.74 ×10⁵ /M in experiment [2] and 2.55 ×10⁵ /M in experiment [3].

In the case of `Cc1c2cnccc2c(C(=O)NCCN)c2[nH]c3ccccc3c12`, the Ratio in experiment [1] came out at 4.6. Besides, the Ka in experiment [2] turned out to be 22.3 ×10⁵ /M; in experiment [3], 4.83 ×10⁵ /M.

For the molecule `CNC(=O)NCCCCCNC(=O)c1c2cc[n+](C)cc2c(C)c2c1[nH]c1ccccc12`, the Ratio in experiment [1] turned out to be 1.1. In addition, the Ka in experiment [2] amounted to 2.34 ×10⁵ /M; in experiment [3] it was 2.11 ×10⁵ /M.
